For data set [1] the following is noted: 25° C.

L-valine N-benzoyl-L-alanine complex: the Solubility in acetone result (acetone) is recorded as “insoluble”. In addition, for the setting “chloroform”, the Solubility in chloroform result was “insoluble”. The Solubility in ethanol result (ethanol) is on record as “insoluble”. The Solubility in methanol entry (methanol) is recorded as “Slightly soluble”. For the same substance, the Solubility in toluene result (toluene) was “insoluble”. In data set [1], this substance displayed a Solubility in water of 1.6 % by weight.
